For one compound, Ki results are on record in ChEMBL document CHEMBL1155457, “Discovery of the dual orexin receptor antagonist [(7R)-4-(5-chloro-1,3-benzoxazol-2-yl)-7-methyl-1,4-diazepan-1-yl][5-methyl-2-(2H-1,2,3-triazol-2-yl)phenyl]methanone (MK-4305) for the treatment of insomnia” (J Med Chem, 2010).

The chains behind the UniProt entries cited, without tags or fusion partners.
UniProt O43613, whole entry: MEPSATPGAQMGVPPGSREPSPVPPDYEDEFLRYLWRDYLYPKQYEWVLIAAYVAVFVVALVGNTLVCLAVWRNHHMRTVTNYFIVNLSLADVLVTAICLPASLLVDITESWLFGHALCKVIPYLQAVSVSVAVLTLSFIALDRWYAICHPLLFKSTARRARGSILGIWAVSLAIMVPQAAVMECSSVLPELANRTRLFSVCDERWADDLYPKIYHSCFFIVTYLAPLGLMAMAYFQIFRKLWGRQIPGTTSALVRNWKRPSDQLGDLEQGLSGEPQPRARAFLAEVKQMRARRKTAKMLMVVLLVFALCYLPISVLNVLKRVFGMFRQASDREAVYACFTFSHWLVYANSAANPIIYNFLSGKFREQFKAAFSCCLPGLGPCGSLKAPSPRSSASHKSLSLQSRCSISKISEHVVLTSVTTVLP

Assay [1] has as its target T1, Orexin/Hypocretin receptor type 1 (Homo sapiens, UniProt O43613). The experiment in a line: Displacement of [3H](S)-N-(biphenyl-2-yl)-1-(2-(1-methyl-1H-benzo[d]imidazol-2-ylthio)acetyl)pyrrolidine-2-carboxamide from human OX1R expressed in CHO cells after 3 hrs by scintillation counting. The assay is classed as cell-based.
Assay [2] has as its target T1, Orexin/Hypocretin receptor type 1. The experiment in a line: Displacement of [3H]N-cyclobutyl-5-methyl-N-(2-(1-methyl-1H-benzo[d]imidazol-2-ylthio)ethyl)-2-(2H-1,2,3-triazol-2-yl)benzamide from human OX1R expressed in CHO cells after 20 hrs by scintillation counting. The assay is classed as cell-based.

`Cc1ccc(-n2nccn2)c(C(=O)N2CCN(c3nc4cc(Cl)ccc4o3)CC[C@H]2C)c1` [SUVOREXANT]: the inhibition constant Ki in assay [1] and in assay [2] was 0.55 nM in each case.
